# According to PubChem BioAssay AID652257 (The Scripps Research Institute Molecular Screening Center, 2013):
# The chains behind the UniProt entries cited, without tags or fusion partners.
# UniProt Q99873, whole entry: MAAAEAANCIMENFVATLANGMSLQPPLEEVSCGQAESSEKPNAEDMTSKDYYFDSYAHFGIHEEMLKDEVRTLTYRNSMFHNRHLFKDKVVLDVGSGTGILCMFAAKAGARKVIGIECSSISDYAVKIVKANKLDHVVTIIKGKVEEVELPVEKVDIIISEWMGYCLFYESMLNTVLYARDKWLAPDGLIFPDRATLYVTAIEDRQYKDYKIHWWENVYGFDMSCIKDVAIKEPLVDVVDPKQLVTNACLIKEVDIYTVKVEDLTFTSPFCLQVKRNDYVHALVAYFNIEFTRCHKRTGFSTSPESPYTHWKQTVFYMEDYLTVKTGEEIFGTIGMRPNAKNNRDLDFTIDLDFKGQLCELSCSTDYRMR
# The list shows a part of the results, in another mix than the full data. Some salts and complexes are drawn in separate pieces, as the source files them; their charges need not balance. Active and inactive are the calls of the source.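 The calls were made as follows: active = inhibition above about 21% made by adding two undisclosed values (limit read from the data); inactive = the rest.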
# Target: Protein arginine N-methyltransferase 1 (Homo sapiens) (UniProt Q99873)
# Experiment: PRMT1 methyltransferase inhibitors, primary screen, biochemical, fluorescence polarization (AID 652257)
# Conditions: recombinant PRMT1, activity-based probe fluorescence polarization; at 2.79 µM; hits give high values
row,Compound,inhibition
1,CP(=O)(Nc1ccc2c(c1)OCCO2)Oc1ccccc1 (centres undefined),inactive: -1.91%
2,Cc1ccccc1NP(C)(=O)Nc1ccccc1C,inactive: -0.21%
3,O=[N+]([O-])c1cc([N+](=O)[O-])c(C(F)(F)F)c([N+](=O)[O-])c1O,inactive: 7.34%
4,CP(=O)(Nc1ccc(SC(F)(F)F)cc1)Oc1ccc(F)cc1 (centres undefined),inactive: -5.81%
5,CCOP(C)(=S)SCC(=O)NC(C)(CC)C(=O)O (centres undefined),inactive: -2.46%
6,CCOP(=O)(CC)OCC,inactive: 0.12%
7,O=[N+]([O-])c1ccc(OP2(=O)COCCO2)cc1 (centres undefined),inactive: -1.88%
8,Cc1cc(-c2cccc3ccccc23)c(C)cn1.O=[N+]([O-])c1cc([N+](=O)[O-])c(O)c([N+](=O)[O-])c1,inactive: 0.42%
9,O=[N+]([O-])c1cc([N+](=O)[O-])c(NCC2CCS(=O)(=O)C2)c([N+](=O)[O-])c1 (centres undefined),inactive: 4.96%
10,Cc1c(C(c2ccc3c(c2)OCO3)c2c(C)n(C)n(-c3ccccc3)c2=O)c(=O)n(-c2ccccc2)n1C.O=[N+]([O-])c1cc([N+](=O)[O-])c(O)c([N+](=O)[O-])c1,inactive: 3.45%
11,COc1ccc(OP(C)(=O)Nc2cccc(Br)c2)cc1 (centres undefined),inactive: -1.01%
12,CN(C)CCOC(=O)C(O)(c1ccccc1)C1CCCCC1 (centres undefined),inactive: 3.96%
13,COc1ccc(NP(C)(=O)Oc2ccccc2OC)cc1 (centres undefined),inactive: 2.6%
14,Cc1c([N+](=O)[O-])cc([N+](=O)[O-])c(Br)c1[N+](=O)[O-],inactive: 1.04%
15,CCN(CC)CCCOC(=O)C(O)(c1ccccc1)C1CCCCC1 (centres undefined),inactive: 2.35%
16,CP(=O)(Nc1ccccc1)Oc1ccc(F)cc1 (centres undefined),inactive: -0.15%
17,O=[N+]([O-])c1cc([N+](=O)[O-])c(OC2CCCCC2O)c([N+](=O)[O-])c1 (centres undefined),inactive: 4.74%
18,CCCCCOc1ccc(NP(C)(=O)Oc2ccc(Cl)cc2Cl)cc1 (centres undefined),inactive: 4.19%
19,CCN(CC)CCCNc1ccccc1[N+](=O)[O-].O=[N+]([O-])c1cc([N+](=O)[O-])c(O)c([N+](=O)[O-])c1,inactive: 0.7%
20,CCOC(=O)c1ccc(NP(C)(=O)Oc2ccc(F)cc2)cc1 (centres undefined),inactive: -0.62%
21,COc1ccc(OP(C)(=O)Nc2ccc(SC(F)(F)F)cc2)cc1 (centres undefined),inactive: -2.45%
22,O=C(OC1CN2CCC1CC2)c1ccc([N+](=O)[O-])cc1 (centres undefined),inactive: -0.94%
23,O=C(OCCN1CCN(CCOCc2ccccc2)CC1)C(O)(c1ccccc1)c1ccccc1,inactive: 1.23%
24,COc1ccc2c(c1O)-c1c(O)c(OC)cc3c1[C@H](C2)[N+](C)(C)CC3.O=[N+]([O-])c1cc([N+](=O)[O-])c([O-])c([N+](=O)[O-])c1[O-],inactive: -2.25%
